The chains behind the UniProt entries cited, without tags or fusion partners. Where a name states a change or a piece, a line headed by the entry shows the natural chain unless it says otherwise. Residues count along the entry.
UniProt P07451: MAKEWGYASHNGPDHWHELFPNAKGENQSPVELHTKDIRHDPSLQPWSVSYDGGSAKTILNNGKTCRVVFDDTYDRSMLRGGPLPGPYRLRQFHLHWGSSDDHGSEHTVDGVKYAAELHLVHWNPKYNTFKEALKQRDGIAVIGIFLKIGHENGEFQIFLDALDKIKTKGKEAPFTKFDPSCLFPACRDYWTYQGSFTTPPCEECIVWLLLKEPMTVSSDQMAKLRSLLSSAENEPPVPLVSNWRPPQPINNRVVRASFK
UniProt P43166: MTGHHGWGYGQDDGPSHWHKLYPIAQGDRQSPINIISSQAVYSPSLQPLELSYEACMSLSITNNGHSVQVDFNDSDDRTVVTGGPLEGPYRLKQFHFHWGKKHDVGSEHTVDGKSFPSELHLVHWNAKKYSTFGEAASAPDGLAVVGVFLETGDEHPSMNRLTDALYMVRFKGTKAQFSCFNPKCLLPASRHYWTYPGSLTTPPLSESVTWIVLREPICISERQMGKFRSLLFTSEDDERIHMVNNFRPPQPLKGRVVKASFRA
UniProt P22748, 19-284: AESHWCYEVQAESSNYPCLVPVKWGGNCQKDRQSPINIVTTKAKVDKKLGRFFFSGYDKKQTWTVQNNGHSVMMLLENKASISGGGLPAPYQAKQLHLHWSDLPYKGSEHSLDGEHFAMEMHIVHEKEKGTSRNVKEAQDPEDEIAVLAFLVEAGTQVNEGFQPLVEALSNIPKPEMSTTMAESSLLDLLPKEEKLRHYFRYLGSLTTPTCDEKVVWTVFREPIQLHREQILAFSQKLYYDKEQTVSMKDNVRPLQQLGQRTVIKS
UniProt P35218, 39-305: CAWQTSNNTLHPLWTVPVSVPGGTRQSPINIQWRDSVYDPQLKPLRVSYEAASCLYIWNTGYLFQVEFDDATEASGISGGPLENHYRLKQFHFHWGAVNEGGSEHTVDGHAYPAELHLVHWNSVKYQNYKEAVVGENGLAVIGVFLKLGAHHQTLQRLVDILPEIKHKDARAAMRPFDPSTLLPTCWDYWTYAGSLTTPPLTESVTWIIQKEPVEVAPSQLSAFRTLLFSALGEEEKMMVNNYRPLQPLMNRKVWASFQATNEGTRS
UniProt Q9Y2D0, 34-317: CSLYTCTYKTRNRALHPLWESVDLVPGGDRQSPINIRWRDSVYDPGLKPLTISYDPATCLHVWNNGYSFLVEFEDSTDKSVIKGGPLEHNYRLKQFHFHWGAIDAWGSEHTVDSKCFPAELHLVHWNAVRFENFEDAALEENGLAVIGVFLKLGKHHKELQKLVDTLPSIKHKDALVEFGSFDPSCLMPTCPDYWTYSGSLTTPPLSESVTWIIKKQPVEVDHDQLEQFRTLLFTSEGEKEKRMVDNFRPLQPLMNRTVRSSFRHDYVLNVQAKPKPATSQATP

In patent publication EP4512396A1, “TARGETED COVALENT INHIBITORS FOR CARBONIC ANHYDRASES” (Vilnius University, priority 2023, dated 2025):

Key:
CAIII = CAIII (Homo sapiens, UniProt P07451); experiment: fluorescent thermal shift assay (FTSA); format: binding; details: FTSA at 37 °C and pH 7.0, read-out: Kd_app
CAVII = CAVII (Homo sapiens, UniProt P43166); experiment: fluorescent thermal shift assay (FTSA); format: binding; details: FTSA at 37 °C and pH 7.0, read-out: Kd_app
CA IV = CA IV (Homo sapiens, UniProt P22748); details: pH 7
CA VA = CA VA (Homo sapiens, UniProt P35218); details: pH 7
CAII = CAII (Homo sapiens, UniProt P00918); details: pH 7
CA VB = CA VB (Homo sapiens, UniProt Q9Y2D0); experiment: fluorescent thermal shift assay (FTSA); format: binding; details: FTSA at 37 °C and pH 7.0, read-out: Kd_app

Row | Kd (CA IV) [nM] | Kd (CA VA) [nM] | Kd (CAII) [nM] | Kd (CA VB) [nM] | Compound | Kd (CAIII) [nM] | Kd (CAVII) [nM]
1 | – | – | – | – | CC(=O)OCCSc1c(F)c(F)c(S(N)(=O)=O)c(F)c1F [AV19-36, 2-((2,3,5,6-tetrafluoro-4-sulfamoylphenyl)thio)ethyl acetate] | 50000 | 5
2 | 2 | – | – | – | CCC(=O)OCCS(=O)(=O)c1c(F)c(F)c(S(N)(=O)=O)c(F)c1F [AV21-03-2, 2-((2,3,5,6-tetrafluoro-4-sulfamoylphenyl)sulfonyl)ethyl propionate] | 40000 | 0.002
3 | – | 1000 | – | – | CCC(=O)OCCS(=O)(=O)c1c(F)c(F)c(S(N)(=O)=O)c(F)c1NC1CCCCCCC1 [AV21-08, 2-((2-(cyclooctylamino)-3,5,6-trifluoro-4-sulfamoylphenyl)sulfonyl)ethyl propionate] | – | –
4 | 0.2 | 5000 | 1 | – | CC(=O)OCCS(=O)(=O)c1c(F)c(F)c(S(N)(=O)=O)c(F)c1NC1CCCCCCCCCCC1 [AV21-47, 2-((2-(cyclododecylamino)-3,5,6-trifluoro-4-sulfamoylphenyl)sulfonyl)ethyl acetate] | – | –
5 | – | 1 | – | 0.01 | C=CS(=O)(=O)c1c(F)c(F)c(S(N)(=O)=O)c(F)c1F [AV22-48, 2,3,5,6-tetrafluoro-4-(vinylsulfonyl)benzenesulfonamide] | – | –
6 | 4 | – | 2 | 0.2 | CCC(=O)OCCS(=O)(=O)c1c(F)c(F)c(S(N)(=O)=O)c(F)c1NC1CCCCCCCCCCC1 [AV22-132, 2-((2-(cyclododecylamino)-3,5,6-trifluoro-4-sulfamoylphenyl)sulfonyl)ethyl propionate] | – | –
7 | – | – | – | 0.005 | NS(=O)(=O)c1c(F)c(F)c(S(=O)(=O)CCOC(=O)Nc2ccccc2)c(F)c1F [AV22-138-1, 2-((2,3,5,6-tetrafluoro-4-sulfamoylphenyl)sulfonyl)ethyl phenylcarbamate] | – | –

Row | Compound | Kd (CA IV) [nM] | Kd (CA VA) [nM] | Kd (CAII) [nM] | Kd (CA VB) [nM] | Kd (CAIII) [nM] | Kd (CAVII) [nM]
8 | COc1ccc(NC(=O)OCCS(=O)(=O)c2c(F)c(F)c(S(N)(=O)=O)c(F)c2F)cc1 [AV23-04, 2-((2,3,5,6-tetrafluoro-4-sulfamoylphenyl)sulfonyl)ethyl (4-methoxyphenyl)carbamate] | 20 | – | 0.3 | – | – | 0.4
